Source: patent EP4821930A1, “SUBSTITUTED POLYCYCLIC COMPOUND” (dated 2026)

Protein sequences, listed by entry. Tags and fused reporters are not part of them. Chains listed by the source or under a name are the forms on record and can include a tag or linker.
UniProt O00255, with tags, fused parts or gaps: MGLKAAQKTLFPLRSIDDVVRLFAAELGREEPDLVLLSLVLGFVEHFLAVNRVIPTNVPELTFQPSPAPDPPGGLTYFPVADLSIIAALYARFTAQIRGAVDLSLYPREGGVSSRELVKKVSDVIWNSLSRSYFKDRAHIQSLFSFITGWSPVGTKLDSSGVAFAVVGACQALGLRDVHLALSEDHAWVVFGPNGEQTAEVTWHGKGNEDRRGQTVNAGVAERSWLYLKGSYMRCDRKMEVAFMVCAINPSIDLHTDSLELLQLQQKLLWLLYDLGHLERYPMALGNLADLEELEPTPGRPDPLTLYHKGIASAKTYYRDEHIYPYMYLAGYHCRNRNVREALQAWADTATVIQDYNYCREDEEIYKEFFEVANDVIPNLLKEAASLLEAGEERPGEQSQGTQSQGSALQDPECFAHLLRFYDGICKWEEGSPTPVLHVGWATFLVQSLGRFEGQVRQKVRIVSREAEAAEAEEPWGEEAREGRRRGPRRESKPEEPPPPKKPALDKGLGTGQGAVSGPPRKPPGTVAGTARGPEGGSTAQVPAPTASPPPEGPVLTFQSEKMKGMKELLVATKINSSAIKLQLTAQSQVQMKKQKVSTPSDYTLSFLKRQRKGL
UniProt O00255, with tags, fused parts or gaps M327I: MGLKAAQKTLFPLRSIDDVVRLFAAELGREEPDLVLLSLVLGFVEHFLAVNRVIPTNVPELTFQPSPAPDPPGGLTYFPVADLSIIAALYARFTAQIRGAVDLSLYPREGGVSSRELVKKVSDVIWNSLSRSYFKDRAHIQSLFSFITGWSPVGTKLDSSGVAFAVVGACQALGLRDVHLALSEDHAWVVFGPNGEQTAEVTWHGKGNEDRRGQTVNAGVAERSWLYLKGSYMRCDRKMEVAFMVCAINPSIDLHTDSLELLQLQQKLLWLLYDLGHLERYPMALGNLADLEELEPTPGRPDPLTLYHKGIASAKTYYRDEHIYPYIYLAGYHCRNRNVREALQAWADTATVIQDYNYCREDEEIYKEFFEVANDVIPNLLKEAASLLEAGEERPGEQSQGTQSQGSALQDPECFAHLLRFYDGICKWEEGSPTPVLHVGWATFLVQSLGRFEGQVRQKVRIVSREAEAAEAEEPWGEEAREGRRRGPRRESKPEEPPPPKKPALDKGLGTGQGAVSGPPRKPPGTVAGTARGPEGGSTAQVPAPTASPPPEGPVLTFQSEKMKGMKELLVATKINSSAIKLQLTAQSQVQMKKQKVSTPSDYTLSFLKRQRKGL

Legend:
[1] = system: Menin mutant proteins; details: Menin mutants (M327, G331, T349); cited from earlier work
[2] = target: Wild-type Menin-MLL (Homo sapiens, UniProt O00255); experiment: Fluorescence polarization binding assay (FP assay), inhibition of wild-type Menin-MLL binding; details: read-out: IC50 (nM) Menin^wt, 5 nM Menin, 2 nM FITC-MLL (4-43), 23 °C, 1 hour
Text: Wild-type Menin binds with high affinity to the conserved N-terminal sequence of MLL. Compounds bind to Menin by competing with the MLL N-terminus. FITC-MLL (4-43) (synthesized by GenScript) contains the conserved sequence responsible for MLL binding to Menin. We established a method to detect the binding activity between Menin and MLL using a fluorescence polarization binding assay (FP assay), which was then used to evaluate the inhibitory activity of compounds. The specific procedure is as follows: Compounds were serially diluted 5-fold in 100% DMSO starting from 1 mM (8 concentrations in total). For each concentration, 2 µL was added to 48 µL of reaction buffer (50 mM NaCl, 50 mM Tris (pH 7.5), 0.05% Tween-20, 1 mM DTT) and mixed thoroughly to obtain 4× compound solutions (reaching final assay concentrations of 10000, 2000, 400, 80, 16, 3.2, 0.64, 0 nM) for later use. Use reaction buffer to prepare 2× Menin to a final assay concentration of 5 nM, and 4× FITC-MLL (4-43) to a final assay concentration of 2 nM. Add 5 µL of the 4× compound solution to a 384-well plate (OptiPlate-384, purchased from PerkinElmer). Then add 10 µL of the 2× Menin solution and centrifuge. After that, add 5 µL of FITC-MLL (4-43) and centrifuge again to initiate the reaction. Incubate at 23 °C for 1 hour protected from light. After the reaction, the signal was read on an EnVision 2104 Multilabel Reader (purchased from PerkinElmer) at an excitation wavelength of 480 nm and an emission wavelength of 535 nm. The data were analyzed using GraphPad Prism (data analysis software) to obtain the IC50 values of the compounds.

[3] = target: Menin^M327I (Homo sapiens, UniProt O00255, M322I); experiment: Fluorescence polarization binding assay (FP assay), inhibition of mutant Menin-MLL binding; details: read-out: IC50 (nM) Menin^M327I, 5 nM Menin^mut, 2 nM FITC-MLL (4-43), 23 °C, 1 hour
Text: The Menin^mut DNA sequence was cloned into the pET28a vector via restriction enzyme digestion and ligation. The recombinant protein was expressed using the BL21 E. coli system and purified by Ni-NTA to obtain Menin^mut. Menin binds with high affinity to the conserved N-terminal sequence of MLL, and compounds bind to Menin by competing with the MLL N-terminus. FITC-MLL (4-43) (synthesized by GenScript) contains the conserved sequence responsible for MLL binding to Menin. We employed a fluorescence polarization binding assay (FP assay) based on the principle that the binding of FITC-MLL (4-43) to Menin^mut increases the molecular weight and enhances fluorescence, to evaluate the inhibitory effect of compounds on the binding between Menin^mut and MLL. The detailed procedure is as follows: Compounds were dissolved in DMSO to a final concentration of 10 mM. The 10 mM compound solution was then diluted 10-fold with DMSO, followed by 5-fold serial dilutions to obtain a total of 8 concentrations. For each concentration, 2 µL was added to 48 µL of reaction buffer (50 mM NaCl, 50 mM Tris, pH 7.5, 0.05% Tween-20, 1 mM DTT) and mixed thoroughly to obtain 4× compound solutions (reaching final assay concentrations of 10000, 2000, 400, 80, 16, 3.2, 0.64, 0 nM) for later use. Use reaction buffer to prepare 2× Menin^mut to a final assay concentration of 5 nM, and 4× FITC-MLL (4-43) to a final assay concentration of 2 nM. Add 5 µL of the 4× compound solution to a 384-well plate (OptiPlate-384, purchased from PerkinElmer). Then add 10 µL of the 2× Meninmut solution and centrifuge. After that, add 5 µL of FITC-MLL (4-43) and briefly centrifuge to initiate the reaction. Incubate at 23 °C for 1 hour protected from light. After the reaction, the signal was read on an EnVision 2104 Multilabel Reader (purchased from PerkinElmer) at an excitation wavelength of 480 nm and an emission wavelength of 535 nm. For each compound, the inhibitory effect was determined at 8 concentrations. The data were processed using GraphPad Prism software to calculate the half-maximal inhibitory concentration (IC50) of the compound for Menin-MLL binding.

[4] = system: MV-4-11 cells expressing wild-type Menin protein; experiment: MV-4-11 cell proliferation inhibition (CellTiter-Blue); details: read-out: IC50 (nM) MV-4-11, 72 hours incubation
Protocol: MV-4-11 cells are human acute myeloid leukemia cells that contain the MLL-AF4 fusion protein. In this experiment, after incubating different concentrations of the compounds with MV-4-11 cells, the CellTiter-Blue® detection reagent from Promega was used to establish a screening method for the inhibition of MV-4-11 cell proliferation.
MV-4-11 cells were cultured in RPMI-1640 medium (Biological Industries, Cat. No. 01-100-1ACS) supplemented with 10% fetal bovine serum (Biological Industries, Cat. No. 04-001-1ACS), under conditions of 37°C and 5% CO2. The cells were subcultured 2 - 3 times per week. Cells were seeded into 96-well cell culture plates (Corning®) at 5,000 cells per well in 195 µL/well and incubated at 37°C with 5% CO2. After 24 hours, compounds were serially diluted 3-fold in 100% DMSO starting from 10 mM (10 concentrations in total). Then, 4 µL of each compound concentration was added to 96 µL of RPMI-1640 medium and mixed well. Subsequently, 5 µL of the diluted compound from each concentration was added to the prepared cell suspension, and the compounds were co-incubated with the cells in a cell culture incubator for 72 hours (3 days). Then, 35 µL of CellTiter-Blue reagent (Promega, Cat. No. G8082) was added, and the reaction was incubated at 37°C with 5% CO2 for 4 hours. Fluorescence values were read on a BMG Clariostar Microplate Reader, and the data were processed using GraphPad Prism software to calculate the IC50 value of the compound for cell proliferation inhibition.

[5] = system: Menin^M327I/MOLM13 cells; experiment: Menin^M327I/MOLM13 cell proliferation inhibition (CellTiter-Glo); details: read-out: IC50 (nM) Menin^M327I/MOLM13, 7 days incubation
Protocol: The Menin^M327I DNA sequence was inserted into the lentiviral vector pCDHL-CMV-3xFlag-puroR via restriction enzyme digestion and ligation. The construct was co-transfected with psPAX2/pMD2G into 293T cells. After 48 hours, the virus was harvested and used to infect MOLM13 cells. Pool and monoclonal selections were performed using puromycin to ultimately obtain a stable cell line stably expressing the Menin^M327I recombinant protein.
MOLM13 cells are human acute myeloid leukemia cells that contain the MLL-AF9 fusion protein. In this experiment, different concentrations of compounds will be incubated with Menin^M327I/MOLM13 cells for 7 days, and viable cells will be detected using Promega's CellTiter-Glo assay.
MOLM13 cells were cultured in RPMI-1640 medium supplemented with 20% fetal bovine serum. One day prior to compound addition, cells were seeded into 96-well cell culture plates at 500 cells per well in a volume of 195 µL per well. Compounds were dissolved in DMSO to a final concentration of 10 mM. The 10 mM compound stock was then serially diluted 3-fold in DMSO to obtain 10 concentrations. For each concentration, 2 µL was taken and added to 48 µL of RPMI-1640 medium for a 25-fold dilution, and then added as a 40× compound to the prepared cell suspension. After co-incubation in the incubator for 7 days, 35 µL of Cell-Titer Glo was added, and the mixture was allowed to stand at room temperature for 10 minutes. Fluorescence signals were read on a CLARIO starPlus instrument, and finally the IC50 value for cell proliferation inhibition was calculated using GraphPad Prism 5.0.

[6] = Pharmacokinetic study in SD rats; details: male SD rats, oral, 10 mg/kg, 0.5% MC + 0.1% SDS
Protocol: Male SD rats were obtained from Beijing Vital River Laboratory Animal Technology Co., Ltd. The rats were divided into groups of three animals each, and the test sample suspension (10 mg/kg, formulated in 0.5% MC + 0.1% SDS) was administered orally by gavage. The animals were fasted overnight prior to the experiment, with food withheld from 10 hours before dosing until 4 hours after dosing. Blood samples were collected at 0.25, 0.5, 1, 2, 4, 6, 8, and 24 hours after dosing. Following anesthesia with isoflurane using a small animal anesthesia machine, 0.3 mL of whole blood was collected from the retro-orbital venous plexus into heparin anticoagulant tubes. The samples were centrifuged at 4000 rpm for 5 minutes at 4°C, and the plasma was transferred to centrifuge tubes and stored at -80 °C until analysis. Plasma samples were extracted using the protein precipitation method, and the extracts were analyzed by LC/MS. Table 3. Pharmacokinetic parameters of the example compounds.

Row | IC50 [2] | IC50 [3] | IC50 [4] | IC50 [5] | AUC0-inf [6] | Cmax [6] | T1/2 [6] | Tmax [6] | SMILES | binding affinity of Menin mutant proteins [1]
1 |  |  |  |  |  |  |  |  | CCN(C(=O)c1cc(F)ccc1Oc1cncnc1N1CC2(CCN(C[C@H]3CC[C@H](NS(=O)(=O)CC)CC3)CC2)C1)C(C)C | significantly reduced
2 | 3.4 nM | 1.9 nM | 2.6 nM | 11.8 nM | 794 ng·h/mL | 170 ng/mL | 14.3 h | 2.00 h | CCN(C(=O)c1cc(F)ccc1-n1c2c(c3c(C)cncc31)CC1(CC2)CN([C@H](CCCN(C)CCOC)C(C)C)C1)C(C)C | 
